# Antibody variant affinities, Ab-14 light chain, assay 1

Source: Engelhart et al. 2022 (doi:10.1038/s41597-022-01779-4), MIT Lincoln Laboratory and A-Alpha Bio; data file from the FLAb repository.

Target peptide (SARS-CoV-2 spike, HR2 region): PDVDLGDISGINAS

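The starting antibody came from a phage panning campaign against this peptide. Library AAYL50 holds single substitutions and randomly drawn double and triple substitutions in the CDRs. The scFvs were displayed on barcoded MATa yeast, the peptide on MATalpha yeast. Pairs that bind mate more often; barcode pairs of the diploids are counted by sequencing. A regression on co-assayed BCL2-family reference pairs converts the normalised counts of each replicate to an apparent Kd. Each pool was mated in three replicate cultures.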

Each scFv is VH, a 15-residue (Gly4Ser)3 linker, VL, as in the parent Ab-14, and differs from it in the CDRs of the light chain only.
VH: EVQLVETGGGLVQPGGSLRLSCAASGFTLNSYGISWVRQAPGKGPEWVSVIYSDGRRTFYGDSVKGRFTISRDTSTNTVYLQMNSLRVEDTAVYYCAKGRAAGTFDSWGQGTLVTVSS
VL: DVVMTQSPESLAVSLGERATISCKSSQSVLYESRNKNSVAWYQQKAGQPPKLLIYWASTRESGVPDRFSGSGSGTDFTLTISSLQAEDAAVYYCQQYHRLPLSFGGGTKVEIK

Sequences are complete VL domains. Values are apparent Kd, the geometric mean of the replicates that gave a signal; lower means stronger binding. An entry "no signal" has no value in the source: the pair was not observed among the diploids in any replicate. This suggests poor binding but is not conclusive. As a blank, each scFv also met three strains without target: over library AAYL50, 18% of these pairings were detected, typically at 15 µM and seldom below 970 nM. In this assay the parent's reference entry averaged 4.4 nM; its copy inside this library read 48 nM.

VL,Kd (apparent),detected
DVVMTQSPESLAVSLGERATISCKSSQSSLYESRNKNLVCWYQQKAGQPPKLLIYWASTRESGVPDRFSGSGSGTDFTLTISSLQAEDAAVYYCQQYHRLPLSFGGGTKVEIK,no signal,0 of 3
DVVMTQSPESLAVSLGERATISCKSSQSVLYESRNKMSVAWYQQKAGQPPKLLIYWASTKESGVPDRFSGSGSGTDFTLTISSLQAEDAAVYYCYQYHRLPLSFGGGTKVEIK,12 µM,3 of 3
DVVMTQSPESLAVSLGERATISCKSSQSVLYERRNKESVAWYQQKAGQPPKLLIYWASTRESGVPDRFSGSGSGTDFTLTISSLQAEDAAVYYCQQYDRLPLSFGGGTKVEIK,58 nM,1 of 3
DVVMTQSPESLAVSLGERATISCKSSQSVLYESRKKNSVAWYQQKAGQPPKLLIYWASTRESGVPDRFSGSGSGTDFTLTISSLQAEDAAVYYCQQYHVLQLSFGGGTKVEIK,22 µM,2 of 3
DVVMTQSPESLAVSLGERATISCKSSQSVLCESRNKASVAWYQQKAGQPPKLLIYWQSTRESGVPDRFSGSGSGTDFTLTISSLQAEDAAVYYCQQYHRLPLSFGGGTKVEIK,120 µM,1 of 3
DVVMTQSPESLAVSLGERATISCKSSQSVLGESRNKNSVAWYQQKAGQPPKLLIYWASTRESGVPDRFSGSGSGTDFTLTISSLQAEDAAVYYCQQYHRLPGSFGGGTKVEIK,no signal,0 of 3
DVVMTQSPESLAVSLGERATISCKSSQSVLYESRWKGSVAWYQQKAGQPPKLLIYWASTRRSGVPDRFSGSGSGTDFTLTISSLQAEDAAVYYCQQYHRLPLSFGGGTKVEIK,36 µM,2 of 3
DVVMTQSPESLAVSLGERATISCKSSQSVLYESRNKNSPAWYQQKAGQPPKLLIYWYSTRESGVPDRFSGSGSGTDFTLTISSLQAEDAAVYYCQQYHRLGLSFGGGTKVEIK,1.6 µM,1 of 3
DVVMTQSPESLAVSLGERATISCKSSQMVLYESRNKWSVAWYQQKAGQPPKLLIYWASTKESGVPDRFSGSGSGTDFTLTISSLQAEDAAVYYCQQYHRLPLSFGGGTKVEIK,no signal,0 of 3
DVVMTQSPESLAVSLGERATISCISSQSVWYESRNKNSVAWYQQKAGQPPKLLIYWASTRESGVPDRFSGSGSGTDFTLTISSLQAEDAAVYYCQQYHRLPSSFGGGTKVEIK,720 µM,1 of 3
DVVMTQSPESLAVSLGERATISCKSRQSVLHESRNKNSVAWYQQKAGQPPKLLIYWASTRESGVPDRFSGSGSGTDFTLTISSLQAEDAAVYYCLQYHRLPLSFGGGTKVEIK,58 nM,3 of 3
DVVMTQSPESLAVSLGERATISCKSSQSVLYESRNKNEVAWYQQKAGQPPKLLIYWASLRESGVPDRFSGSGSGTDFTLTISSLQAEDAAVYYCQFYHRLPLSFGGGTKVEIK,4.7 µM,3 of 3
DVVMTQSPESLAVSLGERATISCKSSQSVLYESRNKNSVAWYQQKAGQPPKLLIYWASTRESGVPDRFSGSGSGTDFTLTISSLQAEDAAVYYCQQWERLPLNFGGGTKVEIK,8.0 µM,2 of 3
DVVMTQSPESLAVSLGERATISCRSSQSVLYESRNSNSVAWYQQKAGQPPKLLIYWASTRESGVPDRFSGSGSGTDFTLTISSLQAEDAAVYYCQQYHRLKLSFGGGTKVEIK,2.2 µM,1 of 3
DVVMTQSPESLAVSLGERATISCKSSQSVLYESRNKNMVVWYQQKAGQPPKLLIYPASTRESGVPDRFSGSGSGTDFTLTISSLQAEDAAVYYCQQYHRLPLSFGGGTKVEIK,no signal,0 of 3
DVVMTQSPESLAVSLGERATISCKSSQSVLEESRNKNSVAWYQQKAGQPPKLLIYWASTREEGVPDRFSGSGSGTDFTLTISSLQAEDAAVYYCQQDHRLPLSFGGGTKVEIK,3.4 nM,3 of 3
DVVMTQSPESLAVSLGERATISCKSSQFVLYDSRNANSVAWYQQKAGQPPKLLIYWASTRESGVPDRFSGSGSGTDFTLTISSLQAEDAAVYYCQQYHRLPLSFGGGTKVEIK,8.0 nM,3 of 3
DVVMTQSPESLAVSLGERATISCKSSQSVLVNSRNKNSVAWYQQKAGQPPKLLIYWWSTRESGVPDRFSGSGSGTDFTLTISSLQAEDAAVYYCQQYHRLPLSFGGGTKVEIK,280 µM,1 of 3
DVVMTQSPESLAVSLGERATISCKIHASVLYESRNKNSVAWYQQKAGQPPKLLIYWASTRESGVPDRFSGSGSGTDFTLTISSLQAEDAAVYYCQQYHRLPLSFGGGTKVEIK,38 µM,1 of 3

The last 2 entries again:

{"VL": "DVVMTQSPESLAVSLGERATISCKSSQSVLVNSRNKNSVAWYQQKAGQPPKLLIYWWSTRESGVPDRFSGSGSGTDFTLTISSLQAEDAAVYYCQQYHRLPLSFGGGTKVEIK", "Kd (apparent)": "280 µM", "detected": "1 of 3"}
{"VL": "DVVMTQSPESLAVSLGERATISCKIHASVLYESRNKNSVAWYQQKAGQPPKLLIYWASTRESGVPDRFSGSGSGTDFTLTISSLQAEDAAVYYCQQYHRLPLSFGGGTKVEIK", "Kd (apparent)": "38 µM", "detected": "1 of 3"}